{"sequences": {"note": "Sequences of proteins named here, by UniProt entry; tags and fusion partners are left off. A change or cut given only in a name is not applied to a line headed by its entry.", "UniProt P10275": "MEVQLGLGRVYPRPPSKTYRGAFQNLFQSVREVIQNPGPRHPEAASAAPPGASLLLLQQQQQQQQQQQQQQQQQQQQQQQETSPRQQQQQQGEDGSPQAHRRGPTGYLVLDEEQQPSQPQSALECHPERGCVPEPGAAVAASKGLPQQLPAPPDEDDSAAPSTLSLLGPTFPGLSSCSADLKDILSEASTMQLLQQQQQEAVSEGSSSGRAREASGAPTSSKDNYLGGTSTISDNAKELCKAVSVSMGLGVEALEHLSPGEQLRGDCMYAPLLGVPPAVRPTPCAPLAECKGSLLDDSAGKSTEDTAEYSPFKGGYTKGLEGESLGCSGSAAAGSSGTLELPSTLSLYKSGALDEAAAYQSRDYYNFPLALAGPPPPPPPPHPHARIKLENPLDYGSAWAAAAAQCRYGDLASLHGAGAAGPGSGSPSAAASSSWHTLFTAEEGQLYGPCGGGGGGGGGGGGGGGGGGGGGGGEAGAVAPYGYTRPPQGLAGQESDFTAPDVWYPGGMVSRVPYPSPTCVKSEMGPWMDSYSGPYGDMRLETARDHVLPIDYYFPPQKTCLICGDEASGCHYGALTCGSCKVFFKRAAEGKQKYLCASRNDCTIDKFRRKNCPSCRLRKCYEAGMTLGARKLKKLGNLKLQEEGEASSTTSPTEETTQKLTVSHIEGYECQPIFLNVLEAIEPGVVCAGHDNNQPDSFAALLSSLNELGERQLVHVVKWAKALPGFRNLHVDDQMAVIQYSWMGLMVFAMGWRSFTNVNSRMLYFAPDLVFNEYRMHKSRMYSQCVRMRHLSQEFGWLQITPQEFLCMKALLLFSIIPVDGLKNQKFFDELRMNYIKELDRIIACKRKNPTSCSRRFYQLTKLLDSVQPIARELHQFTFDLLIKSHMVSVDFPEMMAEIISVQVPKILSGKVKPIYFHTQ"}, "source": "ChEMBL document CHEMBL2086322", "about": "“\"True\" antiandrogens-selective non-ligand-binding pocket disruptors of androgen receptor-coactivator interactions: novel tools for prostate cancer” (J Med Chem, 2012)", "target": "Androgen receptor (Homo sapiens) (UniProt P10275)", "assay": "Displacement of fluormone from AR LBD after 4 hrs by fluorescence polarization assay", "conditions": "concentration not given here"}
{"smiles": "CCCOc1ccc(/C=N/NC(=O)c2cc3c(ccc4ccccc43)o2)cc1", "values": [{"measurement": "inhibition", "result": 0, "unit": "%"}]}
